Results: PubChem BioAssay (NCI)
The entries are a selection whose mix differs from that of the whole data set.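 Single-dose data. Exposure time 48 hours. Values below 10 considered active.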 Calls of active or inactive are those of the source.

How the values were obtained:
Assay in all cases: NCI-60 one-dose screen, 48 h (100 = growth as untreated, 0 = no growth, -100 = all killed)
HCT-15 colon = details: 10 µM unless noted
HT29 colon = details: 10 µM unless noted
SNB-75 CNS = details: 10 µM unless noted
SNB-19 CNS = details: 10 µM unless noted
U251 CNS = details: 10 µM unless noted
PC-3 prostate = details: 10 µM unless noted
SK-MEL-5 melanoma = details: 10 µM unless noted
UACC-62 melanoma = details: 10 µM unless noted
LOX IMVI melanoma = details: 10 µM
SK-MEL-28 melanoma = details: 10 µM unless noted
SK-MEL-2 melanoma = details: 10 µM unless noted
SN12C renal = details: 10 µM unless noted
UO-31 renal = details: 10 µM unless noted
TK-10 renal = details: 10 µM unless noted
ACHN renal = details: 10 µM unless noted
CAKI-1 renal = details: 10 µM unless noted
A498 renal = details: 10 µM unless noted
HL-60(TB) leukemia = details: 10 µM unless noted
CCRF-CEM leukemia = details: 10 µM unless noted
EKVX NSCLC = details: 10 µM unless noted

| Compound | growth (HCT-15 colon) | growth (HT29 colon) | growth (SNB-75 CNS) | growth (SNB-19 CNS) | growth (U251 CNS) | growth (PC-3 prostate) | growth (SK-MEL-5 melanoma) | growth (UACC-62 melanoma) | growth (LOX IMVI melanoma) | growth (SK-MEL-28 melanoma) | growth (SK-MEL-2 melanoma) | growth (SN12C renal) | growth (UO-31 renal) | growth (TK-10 renal) | growth (ACHN renal) | growth (CAKI-1 renal) | growth (A498 renal) | growth (HL-60(TB) leukemia) | growth (CCRF-CEM leukemia) | growth (EKVX NSCLC) |
| --- | --- | --- | --- | --- | --- | --- | --- | --- | --- | --- | --- | --- | --- | --- | --- | --- | --- | --- | --- | --- |
| CC(C)OP(=S)(Cl)OC(C)C | inactive: 107% | inactive: 101% | inactive: 83.2% | inactive: 106% | inactive: 104% | inactive: 97.4% | inactive: 111% | inactive: 118% | inactive: 103% | inactive: 105% | inactive: 88.7% | inactive: 114% | inactive: 82.5% | inactive: 97.4% | inactive: 112% | inactive: 112% | inactive: 103% | inactive: 94.9% | inactive: 93.2% |  |
| CCCCCCCNP(=S)(Cl)Cl | inactive: 101% | inactive: 115% | inactive: 93% | inactive: 104% | inactive: 101% | inactive: 101% | inactive: 104% | inactive: 96.7% | inactive: 102% | inactive: 102% | inactive: 115% | inactive: 104% | inactive: 87.7% | inactive: 106% | inactive: 101% | inactive: 99.3% | inactive: 102% |  | inactive: 109% |  |
| O=C(O)COc1ccc([As](=O)(O)O)cc1[N+](=O)[O-] | inactive: 107% | inactive: 95.9% | inactive: 80.4% | inactive: 104% | inactive: 103% |  | inactive: 103% | inactive: 106% | inactive: 95.7% | inactive: 100% | inactive: 109% | inactive: 99.8% | inactive: 104% | inactive: 111% | inactive: 102% | inactive: 106% |  | inactive: 119% | inactive: 82% | inactive: 107% |
| O=C1NC(c2ccccc2)(c2ccccc2)C(=O)N1P(=O)(Oc1ccccc1)Oc1ccccc1 | inactive: 106% | inactive: 111% | inactive: 72.7% | inactive: 98.4% | inactive: 101% | inactive: 89.7% | inactive: 100% | inactive: 95.9% | inactive: 96.8% | inactive: 106% | inactive: 105% | inactive: 95.9% | inactive: 81.5% | inactive: 107% | inactive: 108% | inactive: 98.2% | inactive: 89.3% | inactive: 89.5% | inactive: 91.7% |  |
| O=C(Nc1ccc([N+](=O)[O-])cc1)N(CCBr)CCBr | inactive: 95% | inactive: 101% | inactive: 77.6% | inactive: 102% | inactive: 93.2% | inactive: 92.9% | inactive: 97.8% | inactive: 112% | inactive: 93.5% | inactive: 102% | inactive: 110% | inactive: 100% | inactive: 68.5% | inactive: 101% | inactive: 94.3% | inactive: 88.2% | inactive: 76.9% | inactive: 106% | inactive: 92.7% |  |
| Nc1ccc(N=Nc2ccc([As](=O)(O)O)cc2)cc1 | inactive: 100% | inactive: 97.4% | inactive: 85.7% | inactive: 107% | inactive: 107% | inactive: 99.8% |  | inactive: 111% | inactive: 104% | inactive: 109% | inactive: 118% | inactive: 107% | inactive: 77.6% | inactive: 115% | inactive: 95.7% | inactive: 89.3% | inactive: 90.1% | inactive: 107% | inactive: 96.6% | inactive: 114% |
| CC[C@H](C)[C@@H]1NC(=O)/C(=C(\C)O)C1=O | inactive: 106% | inactive: 110% | inactive: 85% | inactive: 92.6% | inactive: 96.8% | inactive: 108% | inactive: 91.5% |  | inactive: 93.6% | inactive: 101% | inactive: 108% | inactive: 90.1% | inactive: 94.3% | inactive: 110% | inactive: 87.9% | inactive: 79% | inactive: 107% | inactive: 121% | inactive: 128% | inactive: 98.3% |
| C=NNc1ccc([N+](=O)[O-])cc1[N+](=O)[O-] | inactive: 77.6% | inactive: 95% | inactive: 87.3% | inactive: 94.6% | inactive: 88.9% | inactive: 77.2% | inactive: 91.1% |  | inactive: 70.7% | inactive: 97.4% | inactive: 104% | inactive: 89.3% | inactive: 55.5% | inactive: 97% | inactive: 70.7% | inactive: 91.3% | inactive: 86.9% | inactive: 83% | inactive: 67% | inactive: 84.9% |
| COP(=O)(OC)N(CCCl)CCCl | inactive: 103% | inactive: 113% | inactive: 70.7% | inactive: 99.8% | inactive: 95% | inactive: 94.4% | inactive: 99.5% | inactive: 105% | inactive: 91.5% | inactive: 100% | inactive: 109% | inactive: 108% | inactive: 91% | inactive: 108% | inactive: 104% | inactive: 87.3% | inactive: 109% | inactive: 35.7% | inactive: 99.1% |  |
| CCCOP(=S)(Nc1nc(N)cc(=O)[nH]1)OCCC | inactive: 95.4% | inactive: 107% | inactive: 69% | inactive: 89.8% | inactive: 95.9% |  | inactive: 97.7% | inactive: 90.3% | inactive: 96.9% | inactive: 105% | inactive: 99.4% | inactive: 95.4% | inactive: 81.9% | inactive: 97.1% | inactive: 98.1% | inactive: 108% | inactive: 96.1% | inactive: 92.3% | inactive: 93.1% | inactive: 98.9% |
| ClC1(Cl)SC(Cl)(Cl)C(Cl)(Cl)C1(Cl)Cl | inactive: 97.1% | inactive: 95.1% | inactive: 80.1% | inactive: 106% | inactive: 101% | inactive: 110% | inactive: 110% | inactive: 106% | inactive: 97% | inactive: 113% | inactive: 89.8% | inactive: 105% | inactive: 85.8% | inactive: 114% | inactive: 103% | inactive: 100% | inactive: 106% | inactive: 95.9% | inactive: 90.5% |  |
| O=c1ccc(Oc2ccc([N+](=O)[O-])cc2[N+](=O)[O-])nn1-c1ccc([N+](=O)[O-])cc1[N+](=O)[O-] | active: -68.8% | active: -65% | inactive: 73.9% | inactive: 93.8% | active: -93.3% | inactive: 49.6% | inactive: 68.4% |  | active: -85.4% | inactive: 27.6% | inactive: 92.8% | active: -85.2% | active: -89.6% | inactive: 68.4% | active: -78.9% | active: -93.5% | inactive: 96.6% | active: -13.3% |  | inactive: 97.7% |
| O=[As](O)(c1cccs1)c1cccs1 | inactive: 115% | inactive: 102% | inactive: 95.9% | inactive: 97.6% | inactive: 107% |  | inactive: 106% | inactive: 99.8% | inactive: 106% | inactive: 113% | inactive: 104% | inactive: 99.3% | inactive: 23% | inactive: 99.6% | inactive: 110% | inactive: 99.8% | inactive: 96.6% | inactive: 98.1% | inactive: 89.5% | inactive: 101% |
| CC1(CCC2(C)N=C(NN=C(CCl)CCl)SP2(=O)Nc2ncccn2)N=C(NN=C(CCl)CCl)SP1(=O)Nc1ncccn1 (stereo not given) | inactive: 108% [100 µM] | inactive: 105% [100 µM] | inactive: 81.6% [100 µM] | inactive: 105% [100 µM] | inactive: 98.2% [100 µM] | inactive: 94.7% [100 µM] | inactive: 103% [100 µM] | inactive: 98.2% [100 µM] |  | inactive: 108% [100 µM] | inactive: 107% [100 µM] | inactive: 101% [100 µM] | inactive: 89% [100 µM] | inactive: 103% [100 µM] | inactive: 102% [100 µM] | inactive: 93.3% [100 µM] | inactive: 109% [100 µM] | inactive: 103% [100 µM] | inactive: 98.7% [100 µM] | inactive: 108% [100 µM] |
| O=C(OC1CN2CCC1CC2)c1ccccc1 (stereo not given) | inactive: 102% | inactive: 106% | inactive: 98.4% | inactive: 104% | inactive: 105% | inactive: 90.9% | inactive: 97.8% | inactive: 107% | inactive: 102% | inactive: 119% |  | inactive: 101% | inactive: 88.9% | inactive: 107% | inactive: 110% | inactive: 90.4% | inactive: 92.8% | inactive: 106% | inactive: 90% | inactive: 98.5% |
| CCc1cc(O)c([N+](=O)[O-])c(C)c1[N+](=O)[O-] | inactive: 106% | inactive: 110% | inactive: 99.5% | inactive: 110% | inactive: 104% | inactive: 97.5% |  | inactive: 105% | inactive: 104% | inactive: 121% | inactive: 121% | inactive: 109% | inactive: 83.4% | inactive: 106% | inactive: 100% | inactive: 93.5% | inactive: 128% | inactive: 69% | inactive: 100% | inactive: 106% |
| COc1ccc(C2N=C(NN=C(CCl)CCl)SP2(=O)Nc2ncccn2)c(OC)c1 (stereo not given) | inactive: 107% [100 µM] | inactive: 122% [100 µM] | inactive: 92.1% [100 µM] | inactive: 96.1% [100 µM] | inactive: 103% [100 µM] | inactive: 93.4% [100 µM] | inactive: 102% [100 µM] | inactive: 90.2% [100 µM] |  | inactive: 102% [100 µM] | inactive: 118% [100 µM] | inactive: 90.3% [100 µM] | inactive: 76.5% [100 µM] | inactive: 156% [100 µM] | inactive: 94.2% [100 µM] | inactive: 79.3% [100 µM] | inactive: 111% [100 µM] | inactive: 99.2% [100 µM] | inactive: 101% [100 µM] | inactive: 107% [100 µM] |
